Test results published in PubChem BioAssay AID456 (Sanford-Burnham Center for Chemical Genomics, 2006).
The entries are a selection whose mix differs from that of the whole data set. Results with a measured potency or affinity are listed apart. Some results for these compounds are left out of this collection, so the calls shown say nothing about other tests. Active and inactive are the calls of the source.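 Rule for the calls: active = top tenth filtered wells with inhibition above zero that passed visual or statistical confirmation; inactive = the rest, including hits rejected on review.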

Test: inhibitors of TNFa-induced VCAM-1 surface display, imaging, high-content imaging, pooled HUVEC, TNFa stimulus (AID 456)
Conditions: HUVEC TNFa-induced VCAM-1 surface expression, immunofluorescence imaging

Q: With `O=C(OC1CN2CCC1CC2)C(CO)(c1ccccc1)c1ccccc1` (stereo unspecified) as the molecule, how does the outcome read?
A: inactive
